{"source": "patent US10300066B2", "about": "“Polyfluorinated compounds acting as bruton tyrosine kinase inhibitors” (ZHEJIANG DTRM BIOPHARMA CO. LTD., priority 2014, dated 2019)", "experiment": "28-day toxicokinetic (TK) study in rats", "assay_type": "in vivo, rat", "details": "same dose of 40 mg/kg in rats on day 1", "data": [{"smiles": "C=CC(=O)N1CC[C@@H](n2nc(-c3ccc(Oc4c(F)c(F)cc(F)c4F)cc3F)c3c(N)ncnc32)C1", "note": "[Compound 45, 1-((R)-3-(4-amino-3-(2-fluoro-4-(2,3,5,6-tetrafluorophenoxy)phenyl)-1H-pyrazolo[3,4-d]pyrimidin-1-yl)pyrrolidin-1-yl)prop-2-en-1-one]", "values": [{"measurement": "Exposure relative to ibrutinib", "value": "5- to 14 fold"}]}]}
